The numbers were not newly measured in patent publication US20220265830A1, “LONG-ACTING FORMULATIONS AND VEHICLES” (DURECT CORPORATION, priority 2019, published 2022), which cites them from elsewhere.

The logP is a log measure of how a compound divides between an organic and an aqueous phase.

The conditions of this series: cited from earlier work.

Each structure is given as a SMILES string.

Consider `Cc1cc2c(s1)Nc1ccccc1N=C2N1CCN(C)CC1` [Olanzapine], for which the logP is 4.094.
